Assay results taken from ChEMBL document CHEMBL1131038, “Derivatives of the triazoloquinazoline adenosine antagonist (CGS 15943) having high potency at the human A2B and A3 receptor subtypes” (J Med Chem, 1998).

Protein sequences, listed by entry. Tags and fused reporters are not part of them.
UniProt P25099, whole entry: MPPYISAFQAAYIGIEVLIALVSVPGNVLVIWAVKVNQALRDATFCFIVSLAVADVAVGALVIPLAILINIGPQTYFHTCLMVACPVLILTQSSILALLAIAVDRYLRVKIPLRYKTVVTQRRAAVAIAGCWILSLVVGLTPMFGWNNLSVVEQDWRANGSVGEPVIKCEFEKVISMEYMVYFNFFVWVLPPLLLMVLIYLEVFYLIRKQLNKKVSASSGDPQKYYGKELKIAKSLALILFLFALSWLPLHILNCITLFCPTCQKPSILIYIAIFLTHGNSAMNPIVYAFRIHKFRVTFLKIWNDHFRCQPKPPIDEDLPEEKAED

Tests used:
[1] = biological target: T1, Adenosine receptor A2b (Homo sapiens, UniProt P29275); experiment: pA2 value at human Adenosine A2B receptor from Schild plots with slopes approaching unity; settings: read-out: pA2 (converted)
T1 sequence (P29275 whole entry): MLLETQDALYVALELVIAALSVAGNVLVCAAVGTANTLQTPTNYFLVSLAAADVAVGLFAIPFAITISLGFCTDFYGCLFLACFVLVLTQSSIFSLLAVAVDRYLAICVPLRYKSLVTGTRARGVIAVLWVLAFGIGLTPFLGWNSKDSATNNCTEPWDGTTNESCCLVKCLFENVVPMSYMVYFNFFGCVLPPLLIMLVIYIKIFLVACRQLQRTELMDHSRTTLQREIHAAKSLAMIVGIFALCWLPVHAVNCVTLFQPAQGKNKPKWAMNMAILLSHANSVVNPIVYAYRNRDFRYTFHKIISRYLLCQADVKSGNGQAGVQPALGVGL

[2] = biological target: T1, Adenosine receptor A2b; experiment: Inhibition of 50 uM 5`-(N-ethylcarboxamido)adenosine induced cAMP production in CHO cell line expressing human Adenosine A2B receptor; assay type: cell-based
[3] = Ratio against rat A2A receptor and Human A3 receptor
[4] = Ratio against rat A1 receptor and Human A3 receptor
[5] = biological target: Adenosine receptor A1 (Rattus norvegicus, UniProt P25099)

Structure (SMILES): Nc1nc2ccc(Cl)cc2c2nc(-c3ccco3)nn12 [CGS-15943]
- Kb [1]: 10 nM
- IC50 [2]: 1200 nM

- Selectivity ratio [3]: 1.6
- Selectivity ratio [4]: 1.9
Structure (SMILES): O=C(CCc1ccccc1)Nc1nc2ccc(Cl)cc2c2nc(-c3ccco3)nn12

Structure (SMILES): Nc1ccc(CC(=O)Nc2nc3ccc(Cl)cc3c3nc(-c4ccco4)nn23)cc1
- Ki [5]: 24.9 nM

Each block holds one compound with its values, some of them ahead of it.
